Results on 66 compounds are retold here after PubChem BioAssay AID2094 (Broad Institute, 2009).

The entries are a selection whose mix differs from that of the whole data set. Activity calls are given as the source filed them. Rule as the data show it: active = activity change below about -75% (passing the limit was not always enough); inconclusive = no clear call, values can overlap the other calls.

The nature of the assay: modulation of AI-2 quorum-sensing luminescence – JMH597 strain, luminescence/OD600 ratio, primary screen (AID 2094).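 Also: luminescence divided by OD600 gain over 9 h not by final OD600 alone.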 As to conditions: Vibrio harveyi JMH597 AI-2 luminescence/OD600 ratio, 9 h; at 7.5 µM; stronger effect = lower value; 0 = neutral-control median; strain lacks LuxN and CqsS sensors.
On to `Nc1cc(N)c2nonc2c1[N+](=O)[O-]`, for which the activity change was inactive: 8.11%.

With `CC(C)CC(=O)NC(Sc1ccc(Cl)cc1)C(Cl)(Cl)Cl` (stereo unspecified), the activity change is inactive: 12.9%.

With `Oc1ccccc1CNc1ccccn1`, the activity change is inactive: 30.7%.

As for `O=C(NC(Sc1ccncn1)C(Cl)(Cl)Cl)c1ccccc1` (stereo unspecified), the activity change is inactive: 19.1%.

As for `Cc1c2non([O-])c-2c(C)[n+](=O)[n+]1[O-]`, the activity change was inactive: -2.95%.

In the case of `NC(=O)c1cc([N+](=O)[O-])cc([N+](=O)[O-])c1N`, the activity change was inactive: 36.9%.

Consider `Cc1ccc(N/C(=N/P(=O)(N2CCOCC2)N2CCOCC2)N2CCOCC2)cc1`, for which the activity change is inactive: 7.07%.

Consider `COc1ccccc1OP(=O)(Nc1ccc(C)cn1)Oc1ccccc1OC`, for which the activity change is inactive: 14.3%.

For `Cc1ccc(OP(=O)(Nc2nccs2)Oc2ccc(C)cc2)cc1`, the activity change was inactive: 4.31%.

As for `CN1CCCC(OC(=O)C(c2ccccc2)c2ccccc2)C1` (stereo unspecified), the activity change is inactive: 21.5%.

Consider `Clc1ccc(Cl)c(NC2=NCC(CBr)S2)c1` (stereo unspecified), for which the activity change is inactive: 9.07%.

With `O=[N+]([O-])c1cc([N+](=O)[O-])c(CCN2CCOCC2)c([N+](=O)[O-])c1`, the activity change was inactive: 44.3%.

Regarding `CCN(N=Nc1nonc1N)c1nonc1N`, the activity change is inactive: 16.7%.

`Nc1cccc2ccc([As](=O)(O)O)cc12`: the activity change is inactive: 26.6%.

`CC(=O)Nc1ccc([As](=O)(O)O)cc1`: the activity change is inactive: 6.35%.

Take `O=C(O)c1ccccc1[As](=O)(O)O`: the activity change is inactive: 9.6%.

Regarding `O=P(Nc1nc2ccc(Cl)cc2s1)(c1ccccc1)c1ccccc1`, the activity change is inactive: -6.17%.

In the case of `Cc1cc(SC(NC(=O)c2ccc(F)cc2)C(Cl)(Cl)Cl)ncn1` (stereo unspecified), the activity change is inactive: 27.4%.

Turning to `CCOP(=O)(Nc1ccccc1)OCC`, the activity change is inactive: -2.99%.

On to `Cc1ccc(NP(=O)(Oc2ccccc2F)Oc2ccccc2F)nc1`, for which the activity change is inactive: 8.79%.

For `CN(C(=O)Cc1ccc(Cl)c(Cl)c1)[C@H]1CCCC[C@@H]1N1CCCC1`, the activity change is inactive: -3.61%.

Take `CC(C)(C)C(=O)NC(Sc1ccncn1)C(Cl)(Cl)Cl` (stereo unspecified): the activity change is inactive: 2.16%.

Consider `O=[N+]([O-])c1ncn(CCn2ncnc2[N+](=O)[O-])n1`, for which the activity change was inactive: 0.6%.

`O=[N+]([O-])c1cccc(NC2=NCC(CBr)S2)c1` (stereo unspecified): the activity change is inactive: 3.3%.

`O=C(O)CNc1ccc([As](=O)(O)O)cc1`: the activity change is inactive: 12.2%.

Consider `O=C(Nc1cc([As](=O)(O)O)ccc1O)c1ccccc1`, for which the activity change was inactive: 10.3%.

Consider `Nc1ccc([As](=O)(O)c2ccc(N)cc2)cc1`, for which the activity change was inactive: 13.7%.

In the case of `C[N+]1=C2C=CC=CC=C2SC12C([N+](=O)[O-])=CC([N+](=O)[O-])=C[C-]2[N+](=O)[O-]` (stereo unspecified), the activity change is inactive: -52%.

Turning to `CCN(/C(=N/P(=O)(N1CCOCC1)N1CCOCC1)N1CCOCC1)c1ccc(OC)cc1`, the activity change is inactive: 34.1%.

For the compound `CC(C)=N/N=C(\N)N[N+](=O)[O-]`, the activity change was inactive: 19.1%.

For `CN(C)C(=O)OCCc1n(C)cc[n+]1C`, the activity change is inactive: 7.24%.

With `CC1CCN(C(=O)Oc2c(Cl)cc(Cl)c3cccnc23)CC1`, the activity change is inactive: 19.6%.

On to `COc1ccc(C2=NCC(CBr)S2)cc1` (stereo unspecified), for which the activity change was inactive: 7.88%.

With `O=[N+]([O-])c1cccc2n[nH]nc12`, the activity change was inactive: 30.7%.

Take `CC(=O)N1C2C3N(C(C)=O)C1C1N(C(C)=O)C(C(N1C(C)=O)N3C(C)=O)N2C(C)=O`: the activity change is inactive: -5.05%.

For `Cc1ccc(NP(=O)(Oc2ccccc2)Oc2ccccc2)nc1`, the activity change is inactive: -9.18%.

On to `CCc1nc2c(n1)c1c(non1O)c1c2no[n+]1[O-]`, for which the activity change is inactive: 20.2%.

Turning to `O=[N+]([O-])c1cc([N+](=O)[O-])c(CCNc2ccccc2)c([N+](=O)[O-])c1`, the activity change was inactive: 19.7%.

Consider `CC(C)C(=O)NC(Sc1ccccc1)C(Cl)(Cl)Cl` (stereo unspecified), for which the activity change was inactive: 17.8%.

On to `O=P(Nc1nccs1)(c1ccccc1)c1ccccc1`, for which the activity change is inactive: -2.46%.

On to `c1nnnn1CCn1cnnn1`, for which the activity change is inactive: 23.5%.

Consider `CC(=O)NC(SC(=S)N(C)C)C(Cl)(Cl)Cl` (stereo unspecified), for which the activity change was inactive: 26.6%.

As to `O=[N+]([O-])c1ncn(CCn2cnc([N+](=O)[O-])n2)n1`, the activity change was inactive: 7.52%.

For the compound `O=[As](O)(c1ccccc1)c1ccc(O)cc1`, the activity change was inactive: 9.85%.

Turning to `C(Cc1nn[nH]n1)Cc1nn[nH]n1`, the activity change is inactive: 5.15%.

Regarding `Nc1ccc([As](=O)(O)c2ccc([N+](=O)[O-])cc2)cc1`, the activity change is inactive: 6.45%.

For `O=C(OC1CN2CCC1CC2)c1cccc(Cl)c1` (stereo unspecified), the activity change was inactive: 16.3%.

With `O=P(Nc1ccccn1)(c1ccc(Br)cc1)c1ccc(Br)cc1`, the activity change is inactive: 40.6%.

Take `CN(C)C1(CNC(=O)c2ccc(Cl)c(S(N)(=O)=O)c2)CCCCC1`: the activity change was inactive: 10.6%.

Take `O=P(Nc1nc2ccccc2s1)(c1ccccc1)c1ccccc1`: the activity change is inactive: 27.3%.

Turning to `C[C@H]1OP(=O)(Oc2ccccc2)[C@H](O)[C@H](O)[C@H]1N=[N+]=[N-]` (stereo partly specified), the activity change is inactive: 13%.

As to `COC(=O)c1cc2c(s1)N=C(c1ccccc1)N(C)P2(=O)N1CCOCC1` (stereo unspecified), the activity change is inactive: 15.7%.

As to `CC(=O)NC(SC(=S)N(CC(C)C)CC(C)C)C(Cl)(Cl)Cl` (stereo unspecified), the activity change was inactive: 16%.

Turning to `Cc1ccc(OP(=O)(Nc2ccccn2)Oc2ccc(C)cc2)cc1`, the activity change is inactive: 17.6%.

For `O=C(OC1CN2CCC1CC2)c1ccccc1` (stereo unspecified), the activity change was inactive: 17.5%.

`CCC(=O)N1C2C3N(C(=O)CC)C1C1N(C(=O)CC)C(C(N1C(=O)CC)N3C(=O)CC)N2C(=O)CC`: the activity change was inactive: 20.2%.

Take `Cc1ccccc1OP(=O)(Nc1ccccn1)Oc1ccccc1C`: the activity change is inactive: 7.72%.

As for `CN(C)C(=O)Oc1noc2ccccc12`, the activity change is inactive: 4%.

For the compound `CCNC(=S)/N=C(\N)N[N+](=O)[O-]`, the activity change is inactive: 7.22%.

For the compound `O=C(NC1CCS(=O)(=O)C1)NP(=S)(Oc1ccccc1)Oc1ccccc1` (stereo unspecified), the activity change was inactive: 9.26%.

`c1ccc(-c2nn[nH]n2)c(-c2nn[nH]n2)c1`: the activity change is inactive: 3.14%.

With `Cc1ccc(NP(=O)(Oc2cccc(C)c2)Oc2cccc(C)c2)nc1`, the activity change was inactive: 7.36%.

For the compound `CCOC(=O)NC(Sc1ccccc1)C(Cl)(Cl)Cl` (stereo unspecified), the activity change is inactive: 2.12%.

With `CC(=O)c1ccc(N2CC2c2ccncc2)cc1` (stereo unspecified), the activity change was inactive: 7.41%.

`C[C@H]1OP(=O)(Oc2ccccc2)C[C@@H]2O[C@@H]21` (stereo partly specified): the activity change is inactive: 21.5%.

As to `C[C@@H]1C=CCP(=O)(Oc2ccccc2)O1` (stereo partly specified), the activity change was inactive: 14.7%.
